Measurements taken from patent publication US20260382582A1, “G-PROTEIN COUPLED RECEPTOR ANTAGONIST” (published 2026).
Where two headings read alike, the source gives them in different places.

Sequences of proteins named here, by UniProt entry; tags and fusion partners are left off.
UniProt Q96LA9, whole entry: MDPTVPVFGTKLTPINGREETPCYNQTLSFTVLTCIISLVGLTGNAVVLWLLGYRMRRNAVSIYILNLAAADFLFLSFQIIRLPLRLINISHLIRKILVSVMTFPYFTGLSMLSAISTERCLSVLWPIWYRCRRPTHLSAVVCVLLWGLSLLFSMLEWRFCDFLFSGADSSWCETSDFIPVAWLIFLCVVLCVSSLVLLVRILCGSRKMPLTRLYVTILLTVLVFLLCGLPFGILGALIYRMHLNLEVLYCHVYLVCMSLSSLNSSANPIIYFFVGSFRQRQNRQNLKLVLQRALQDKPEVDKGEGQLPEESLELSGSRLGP
UniProt P05177, whole entry: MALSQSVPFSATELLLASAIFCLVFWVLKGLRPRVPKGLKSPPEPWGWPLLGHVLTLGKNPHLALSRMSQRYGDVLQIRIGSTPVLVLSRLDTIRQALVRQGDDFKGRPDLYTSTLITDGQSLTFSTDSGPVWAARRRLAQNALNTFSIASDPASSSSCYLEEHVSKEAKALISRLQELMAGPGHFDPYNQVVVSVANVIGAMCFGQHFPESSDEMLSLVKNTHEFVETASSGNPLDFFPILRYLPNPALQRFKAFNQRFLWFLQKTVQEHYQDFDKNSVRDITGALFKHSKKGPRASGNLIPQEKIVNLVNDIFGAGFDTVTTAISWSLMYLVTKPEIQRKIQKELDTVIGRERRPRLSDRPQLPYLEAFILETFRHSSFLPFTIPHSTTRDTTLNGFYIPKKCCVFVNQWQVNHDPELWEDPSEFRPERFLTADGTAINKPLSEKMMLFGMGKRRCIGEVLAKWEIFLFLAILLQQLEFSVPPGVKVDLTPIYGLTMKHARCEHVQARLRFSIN
UniProt P33261, whole entry: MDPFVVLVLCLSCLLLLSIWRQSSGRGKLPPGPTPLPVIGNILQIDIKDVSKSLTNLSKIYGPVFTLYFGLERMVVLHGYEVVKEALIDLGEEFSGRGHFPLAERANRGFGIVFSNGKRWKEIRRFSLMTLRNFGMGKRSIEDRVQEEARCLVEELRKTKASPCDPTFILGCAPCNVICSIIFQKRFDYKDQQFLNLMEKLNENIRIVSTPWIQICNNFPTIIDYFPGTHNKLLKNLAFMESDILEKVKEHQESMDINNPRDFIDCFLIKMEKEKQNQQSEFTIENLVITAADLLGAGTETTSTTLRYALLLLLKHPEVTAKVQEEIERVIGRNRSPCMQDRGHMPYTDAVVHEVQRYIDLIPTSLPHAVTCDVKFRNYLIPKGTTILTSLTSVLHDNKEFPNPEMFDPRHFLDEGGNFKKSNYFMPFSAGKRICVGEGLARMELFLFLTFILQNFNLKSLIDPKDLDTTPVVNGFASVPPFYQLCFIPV
UniProt P11712, whole entry: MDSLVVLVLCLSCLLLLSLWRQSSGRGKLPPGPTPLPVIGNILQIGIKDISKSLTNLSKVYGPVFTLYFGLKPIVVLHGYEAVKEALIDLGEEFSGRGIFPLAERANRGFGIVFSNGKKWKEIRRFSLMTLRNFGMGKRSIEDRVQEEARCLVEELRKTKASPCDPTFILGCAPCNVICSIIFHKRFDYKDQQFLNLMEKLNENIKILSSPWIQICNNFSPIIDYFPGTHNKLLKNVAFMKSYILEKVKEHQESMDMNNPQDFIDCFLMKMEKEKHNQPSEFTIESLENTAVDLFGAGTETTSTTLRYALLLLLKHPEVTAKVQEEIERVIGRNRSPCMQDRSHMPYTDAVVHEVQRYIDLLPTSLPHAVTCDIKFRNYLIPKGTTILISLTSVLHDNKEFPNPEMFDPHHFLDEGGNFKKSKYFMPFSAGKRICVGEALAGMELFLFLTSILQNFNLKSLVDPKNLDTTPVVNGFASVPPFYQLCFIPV
UniProt P10635, whole entry: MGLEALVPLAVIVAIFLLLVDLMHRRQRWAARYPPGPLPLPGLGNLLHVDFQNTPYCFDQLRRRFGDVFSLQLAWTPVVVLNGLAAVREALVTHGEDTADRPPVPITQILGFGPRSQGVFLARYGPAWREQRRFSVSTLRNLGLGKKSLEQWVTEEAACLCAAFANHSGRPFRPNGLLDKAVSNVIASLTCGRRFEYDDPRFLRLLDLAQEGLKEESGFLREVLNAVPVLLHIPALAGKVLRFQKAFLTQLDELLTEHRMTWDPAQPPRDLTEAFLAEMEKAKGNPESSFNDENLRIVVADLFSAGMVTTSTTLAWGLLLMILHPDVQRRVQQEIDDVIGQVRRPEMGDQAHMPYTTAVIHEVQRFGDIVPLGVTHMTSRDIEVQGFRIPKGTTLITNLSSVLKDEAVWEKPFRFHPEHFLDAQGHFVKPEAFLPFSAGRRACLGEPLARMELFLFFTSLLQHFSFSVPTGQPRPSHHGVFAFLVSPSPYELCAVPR
UniProt P08684, whole entry: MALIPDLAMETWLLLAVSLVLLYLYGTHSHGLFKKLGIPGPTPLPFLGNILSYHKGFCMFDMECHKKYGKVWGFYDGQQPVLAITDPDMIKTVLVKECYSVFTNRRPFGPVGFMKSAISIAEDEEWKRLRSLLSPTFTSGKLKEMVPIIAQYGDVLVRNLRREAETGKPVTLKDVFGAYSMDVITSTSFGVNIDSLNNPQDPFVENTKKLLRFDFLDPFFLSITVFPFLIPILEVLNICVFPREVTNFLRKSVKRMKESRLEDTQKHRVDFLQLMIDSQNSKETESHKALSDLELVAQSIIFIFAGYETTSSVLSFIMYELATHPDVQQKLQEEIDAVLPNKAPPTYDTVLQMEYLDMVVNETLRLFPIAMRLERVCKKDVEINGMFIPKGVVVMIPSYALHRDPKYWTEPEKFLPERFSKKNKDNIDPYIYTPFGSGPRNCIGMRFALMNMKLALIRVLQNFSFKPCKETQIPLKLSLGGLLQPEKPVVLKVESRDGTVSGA
UniProt Q96LB1, whole entry: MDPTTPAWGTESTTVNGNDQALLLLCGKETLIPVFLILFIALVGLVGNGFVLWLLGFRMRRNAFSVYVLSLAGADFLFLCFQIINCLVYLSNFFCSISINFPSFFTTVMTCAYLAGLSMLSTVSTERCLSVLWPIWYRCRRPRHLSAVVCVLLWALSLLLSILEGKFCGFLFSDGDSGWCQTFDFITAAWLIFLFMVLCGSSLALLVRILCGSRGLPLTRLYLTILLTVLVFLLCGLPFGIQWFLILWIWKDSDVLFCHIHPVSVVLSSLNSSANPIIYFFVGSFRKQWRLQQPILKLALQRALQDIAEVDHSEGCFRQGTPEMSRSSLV

How the values were obtained:
[1] = Stability in DLM
[2] = Stability in RLM
[3] = LogP / LogD
[4] = target: MRGPRX4 (Homo sapiens, UniProt Q96LA9); test: MRGPRX4 activity assay, antagonism versus deoxycholic acid (DCA), IP-One Gq HTRF
[5] = Pharmacokinetic study in rat, oral and intravenous (Table 6)
[6] = target: CYP1A2 (Homo sapiens, UniProt P05177); test: CYP inhibition; details: read-out: CYP 1A2 IC50
[7] = target: CYP2C19 (Homo sapiens, UniProt P33261); test: CYP inhibition; details: read-out: CYP 2C19 IC50
[8] = target: CYP2C9 (Homo sapiens, UniProt P11712); test: CYP inhibition; details: read-out: CYP 2C9 IC50
[9] = target: CYP2D6 (Homo sapiens, UniProt P10635); test: CYP inhibition; details: read-out: CYP 2D6 IC50
[10] = target: CYP3A4 (Homo sapiens, UniProt P08684); test: CYP inhibition; details: read-out: CYP 3A4 IC50
[11] = Plasma protein binding (PPB), H
[12] = Pharmacokinetic study in mice, oral and intravenous (Table 6)
[13] = Stability in MLM
[14] = Plasma protein binding (PPB), M
[15] = Stability in HLM
[16] = target: MRGPRX2 (Homo sapiens, UniProt Q96LB1); test: MRGPRX2 selectivity assay, antagonism versus Substance P, IP-One Gq HTRF in CHO-K1/MRGPRX2 cells; details: for IC50: versus 10 μM Substance P
[17] = Solubility pH 7.4
[18] = MDCK permeability; details: for MDCK ER: efflux ratio (ER)
[19] = read-out: MRGPRX4 antagonist activity, SH-4 cells, versus 30 μM DCA agonist, Table 3
[20] = read-out: MRGPRX2 activity IC50, N1, Table 4

| DLM % Re @30 min [1] [%] | RLM % Re @30 min [2] [%] | LogD [3] | LogP [3] | IC50 ([4]; Table 6, target not given) [µM] | IC50 ([4]; Table 7, target not given) [µM] | IC50 [4, 19] [µM] | AUC0-t ([5]; Rat iv) [ng·h/mL] | C0 ([5]; Rat iv) [ng/mL] | CL ([5]; Rat iv) [mL/min/kg] | t1/2 ([5]; Rat iv) [h] | AUC0-t ([5]; Rat po (1mpk)) [ng·h/mL] | Cmax ([5]; Rat po (1mpk)) [ng/mL] | t1/2 ([5]; Rat po (1mpk)) [h] | IC50 [6] [µM] | IC50 [7] [µM] | IC50 [8] [µM] | IC50 [9] [µM] | IC50 [10] [µM] | PPB (H) % U [11] [%] | SMILES | also measured |
| --- | --- | --- | --- | --- | --- | --- | --- | --- | --- | --- | --- | --- | --- | --- | --- | --- | --- | --- | --- | --- | --- |
| > 99 | 99 | 2.4 | 3.3 | 0.024 | 0.024 | < 0.1 | 27444 | 2806 | 0.67 | 13.2 | 26466 | 1837 | 10.75 | > 30 | > 30 | > 30 | > 30 | > 30 | 0.41 | O=c1[nH]c(-c2cccc([C@@H]3Cc4cc(C(F)(F)F)ccc4O3)c2F)no1 (single isomer, unassigned) | AUC0-t ([12]; iv 1mpk): 42281 ng·h/mL; C0 ([12]; iv 1mpk): 4169 ng/mL; CL ([12]; iv 1mpk): 0.27 mL/min/kg; Vd ([12]; iv 1mpk): 0.35 L/kg; t1/2 ([12]; iv 1mpk): 14.74 h; % F ([12]; iv 1mpk, po 10mpk): 107%; AUC0-t ([12]; po 10mpk): 452005 ng·h/mL; Cmax ([12]; po 10mpk): 29537 ng/mL; t1/2 ([12]; po 10mpk): 17.94 h; MLM % Re @30 min [13]: > 99%; PPB (M) % U [14]: 0.81%; HLM % Re @30 min [15]: 98%; MRGPRX2 IC50 relative to potency in MRGPRX4 assay ([16]; 10 μM (MRGPRX2) vs 28 nM (MRGPRX4)): 357 times; IC50 ([16]; read-out: MRGPRX2 IC50): 10 µM; IC50 [16, 20]: 10 µM; Solubility pH 7.4 [17]: >200 μM; MDCK A-B [18]: 18.7 ×10⁻⁶ cm/s; MDCK B-A [18]: 21.6 ×10⁻⁶ cm/s; MDCK ER [18]: 1.15 |
| > 99 | > 99 | 2.2 | 3.2 | 0.02 | 0.02 | < 0.1 | 52300 | 4998 | 0.23 | 13.4 | 44308 | 2800 | 11.26 | > 30 | > 30 | > 30 | > 30 | 4.6 | 1.55 | O=c1[nH]c(-c2cccc([C@@H]3Cc4cc(Cl)c(F)cc4O3)c2F)no1 (single isomer, unassigned) | Vd ([5]; Rat iv): 0.27 L/kg; % F ([5]; Rat po (1mpk)): 85%; AUC0-t ([12]; iv 1mpk): 57467 ng·h/mL; C0 ([12]; iv 1mpk): 7687 ng/mL; CL ([12]; iv 1mpk): 0.24 mL/min/kg; Vd ([12]; iv 1mpk): 0.21 L/kg; t1/2 ([12]; iv 1mpk): 9.95 h; % F ([12]; iv 1mpk, po 10mpk): 97%; AUC0-t ([12]; po 10mpk): 573114 ng·h/mL; Cmax ([12]; po 10mpk): 47007 ng/mL; t1/2 ([12]; po 10mpk): 9.22 h; MLM % Re @30 min [13]: 84%; PPB (M) % U [14]: 0.22%; HLM % Re @30 min [15]: 80%; IC50 ([16]; read-out: MRGPRX2 IC50): > 3 µM; IC50 [16, 20]: > 3 µM; Solubility pH 7.4 [17]: >200 μM; MDCK A-B [18]: 18.5 ×10⁻⁶ cm/s; MDCK B-A [18]: 16 ×10⁻⁶ cm/s; MDCK ER [18]: 0.86 |
| 92 | > 99 | 1.8 | 3 | 0.033 | 0.033 | < 0.1 | 33602 | 3895 | 0.52 | 2.7 | 27011 | 2587 | 2.7 | > 30 | > 30 | > 30 | > 30 | > 30 | 0.81 | O=c1[nH]c(-c2cccc([C@@H]3Cc4cc(Cl)c(F)cc4O3)n2)no1 (single isomer, unassigned) | Vd ([5]; Rat iv): 0.12 L/kg; % F ([5]; Rat po (1mpk)): 80%; AUC0-t ([12]; iv 1mpk): 54613 ng·h/mL; C0 ([12]; iv 1mpk): 6025 ng/mL; CL ([12]; iv 1mpk): 0.3 mL/min/kg; Vd ([12]; iv 1mpk): 0.12 L/kg; t1/2 ([12]; iv 1mpk): 4.67 h; % F ([12]; iv 1mpk, po 10mpk): 49%; AUC0-t ([12]; po 10mpk): 273787 ng·h/mL; Cmax ([12]; po 10mpk): 30572 ng/mL; t1/2 ([12]; po 10mpk): 2.9 h; MLM % Re @30 min [13]: > 99%; PPB (M) % U [14]: 1.11%; HLM % Re @30 min [15]: 79%; IC50 [16, 20]: > 10 µM; Solubility pH 7.4 [17]: 193 μM; MDCK A-B [18]: 28.1 ×10⁻⁶ cm/s; MDCK B-A [18]: 36.8 ×10⁻⁶ cm/s; MDCK ER [18]: 1.31 |
